Ki data for one molecule are collected here from US10370336B2, “Phenyl-cyanoquinolinone PDE9 inhibitors” (Merck Sharp & Dohme Corp., priority 2015, dated 2019).

The chains behind the UniProt entries cited, without tags or fusion partners. A line that says so, or that is headed by a name, gives the form on record, which may keep a tag or linker.
UniProt O76083, other isoform, or with tags, fused parts or gaps: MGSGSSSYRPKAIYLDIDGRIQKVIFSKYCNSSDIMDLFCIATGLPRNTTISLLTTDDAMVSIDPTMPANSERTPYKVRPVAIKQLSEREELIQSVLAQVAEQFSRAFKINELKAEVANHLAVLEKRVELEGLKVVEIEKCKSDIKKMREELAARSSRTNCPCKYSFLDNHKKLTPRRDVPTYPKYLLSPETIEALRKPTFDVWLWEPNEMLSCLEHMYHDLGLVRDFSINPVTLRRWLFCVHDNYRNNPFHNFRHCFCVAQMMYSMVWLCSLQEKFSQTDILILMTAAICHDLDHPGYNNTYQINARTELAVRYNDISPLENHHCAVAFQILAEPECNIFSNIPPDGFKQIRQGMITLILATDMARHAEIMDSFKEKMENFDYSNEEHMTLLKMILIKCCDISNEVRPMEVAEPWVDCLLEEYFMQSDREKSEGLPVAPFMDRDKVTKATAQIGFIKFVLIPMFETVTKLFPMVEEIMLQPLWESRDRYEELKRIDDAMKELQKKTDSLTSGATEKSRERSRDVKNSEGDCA

This assay has as its target human PDE9 enzyme (PDE9A2) (Homo sapiens (Human), UniProt O76083). Nature of the assay: biochemical.

Consider `CCc1ccc(-c2c(C)c(=O)[nH]c3ccccc23)cc1` [Example 1-14, 4-(4-Ethylphenyl)-3-methylquinolin-2(1H)-one], for which the affinity, expressed as Ki, was 444 nM.
